Reference: patent US11034726B2, “Gene expression inhibitors” (PIVARIS BIOSCIENCE GMBH, priority 2017, dated 2021)
Ends that are not written are not given here.

What was measured:
[1] = system: plasmid-encoded luciferase in HEK293 cells; assay: Transient transfection of luciferase expression plasmid (CMV promoter) with peptide, luciferase in cell lysates; details: peptide transfected with CMV-luciferase plasmid, HEK293, 24 hrs
[2] = system: plasmid-encoded truncated NF-κB p65 (p65 M2) in HEK293 cells; assay: Transfection of p65 M2 expression plasmid, Western blot; assay type: cell-based, human; details: 20 μM, 24 hrs
[3] = system: plasmid-encoded secreted alkaline phosphatase (SEAP) in HEK293 cells; assay: Transient transfection of SEAP expression vector (CMV promoter), SEAP in supernatant by colorimetric assay; assay type: cell-based, human; details: 24 hrs

CLAFYACFCGGGCLAFYACFC [I24 dimer]
inhibition of luciferase production (in words) [1]: more potent compared to peptide I24 but less potent compared to TAT-I24

CLAFYACFC (cysteine pairing not given here) [I24, linear or cyclized via cysteine residues]
p65 M2 production by Western blot [2]: no p65 M2 could be detected | SEAP released to the supernatant (in words) [3]: reduced production of SEAP in a dose-dependent manner
